This note sets out measurements from patent US20210290816A1, “LIQUID EMBOLICS” (MicroVention, Inc., priority 2020, published 2021).

The test system of the series is Porcine Liver. The note with it: pig.

The structures appear in SMILES notation.

In the case of `O=C1[O][Pt]2([NH][C@@H]3CCCC[C@H]3[NH]2)[O]C1=O` [oxaliplatin], the “tapering of oxaliplatin in the blood back to baseline” value (1.5 mL PHIL LV loaded with 30 mg oxaliplatin, blood collected to 120 minutes) is listed as “beyond the time scale of the experiment”. Besides, the “oxaliplatin in the blood, rapid rise to” value (in five minutes, 1.5 mL PHIL LV loaded with 30 mg oxaliplatin into hepatic artery branch) is “about 1,300 ppb”.
